The nature of the series: pKa. (dissociation constant) of the compound. Type of series: physicochemical. In outline: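 ³¹P NMR titration at 25 °C in aqueous 0.1 M NaCl to keep ionic strength constant. pH adjusted with NaOH or HCl and measured before and after each spectrum. pKa calculated from the pH dependence of the chemical shift.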

Turning to `NCCCOP(=O)(O)NCCCl`, the pKa (commonly the negative logarithm of the acid dissociation constant) turned out to be 1.6.

Regarding `O=P(O)(NCCCl)OCCCNCCCl`, the pKa stood at 1.6.

The record behind these values is ChEMBL document CHEMBL1132146, “Chemical stability and fate of the cytostatic drug ifosfamide and its N-dechloroethylated metabolites in acidic aqueous solutions” (J Med Chem, 1999).
